## Apparent affinities of Ab-95 variants for a coronavirus HR2 peptide

Data: MIT Lincoln Laboratory AlphaSeq set, Engelhart et al. 2022, doi:10.1038/s41597-022-01779-4, as distributed in FLAb.

The target is the same throughout: PDVDLGDISGINAS, from the HR2 region of SARS-CoV-2 spike.

Ab-95 is the parent antibody, in scFv form: VH, then a (GGGGS)3 linker, then VL. The heavy chain is unchanged in all variants.
VH: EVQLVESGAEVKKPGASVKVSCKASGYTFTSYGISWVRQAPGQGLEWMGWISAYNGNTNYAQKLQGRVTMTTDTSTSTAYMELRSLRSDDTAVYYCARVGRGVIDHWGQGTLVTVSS
VL: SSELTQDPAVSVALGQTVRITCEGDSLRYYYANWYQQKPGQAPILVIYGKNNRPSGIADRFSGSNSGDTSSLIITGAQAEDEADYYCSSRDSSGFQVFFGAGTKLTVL

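AAYL52 was designed without a model: most single CDR substitutions and a random sample of double and triple ones. AlphaSeq pools MATa yeast showing the antibodies with MATalpha yeast showing the peptide. Binding brings cells together so that they mate, and sequencing counts the barcode pairs among the diploids. Read counts were normalised to the haploid input and turned into Kd by a linear fit to BCL2-family pairs of known affinity, for each replicate. The assay was run in three technical replicates.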

Sequences are complete VL domains.
Scale: log10 of Kd in nM, estimated from mating counts; low values are strong binders.
Where no diploid with the target was found in that replicate, the entry reads "nd": below detection, most likely a poor binder, though not proof of it.

VL,"log10 Kd, replicates",control signals
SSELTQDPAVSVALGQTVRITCEGDSLRYYYANWYQQKPGQAPILVIYGKNNRPSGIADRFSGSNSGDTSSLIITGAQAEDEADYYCSSRDSSGFQIFFGAGTKLTVL,2.56 / 3.46 / 3.68,3/9 (3.45)
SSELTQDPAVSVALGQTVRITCEGDSLSYTYGNWYQQKPGQAPILVIYGKNNRPSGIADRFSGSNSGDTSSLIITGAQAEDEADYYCSSRDSSGFQVFFGAGTKLTVL,2.53 / 2.82 / 2.81,4/9 (4.34)
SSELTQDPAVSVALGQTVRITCEGDSLRFYYSNWYQQKPGQAPILVIYGKNNHPSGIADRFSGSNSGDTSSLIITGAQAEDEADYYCSSRDSSGFQVFFGAGTKLTVL,3.88 / nd / nd,1/9 (3.18)
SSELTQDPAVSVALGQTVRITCAGDSPRYYYANWYQQKPGQAPILVIYGKNNRPSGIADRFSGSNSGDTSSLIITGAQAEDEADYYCFSRDSSGFQVFFGAGTKLTVL,nd / nd / 4.03,1/9 (4.74)
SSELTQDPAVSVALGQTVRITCEGDSLRYYYANWYQQKPGQAPILVIYGKNNRPMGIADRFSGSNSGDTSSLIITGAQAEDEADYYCDSRDSSGFQIFFGAGTKLTVL,2.85 / 4.97 / nd,0/9
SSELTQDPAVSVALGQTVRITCEFDSLRYYYANWYQQKPGQAPILVIYGKNNNPSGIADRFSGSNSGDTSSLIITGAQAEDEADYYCSSRDSSGFKVFFGAGTKLTVL,4.22 / 5.58 / nd,2/9 (3.56)
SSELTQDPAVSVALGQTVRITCEHDSARYYYANWYQQKPGQAPILVIYGKNNRPSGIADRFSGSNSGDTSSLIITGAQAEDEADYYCSSRDSSGFQVSFGAGTKLTVL,2.72 / 2.50 / 2.03,5/9 (3.89)
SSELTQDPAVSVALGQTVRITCEGKSLRYYYAMWYQQKPGQAPILVIYGKNNRPSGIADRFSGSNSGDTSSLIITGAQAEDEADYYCSSRDKSGFQVFFGAGTKLTVL,nd / nd / nd,1/9 (3.16)
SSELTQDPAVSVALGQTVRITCEGDSLRCYPANWYQQKPGQAPILVIYGKNNRPSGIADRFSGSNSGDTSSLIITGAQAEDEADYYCSSRDSSGFQVRFGAGTKLTVL,3.24 / 3.34 / 3.86,3/9 (3.77)
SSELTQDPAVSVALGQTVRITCEGISLRYYLANWYQQKPGQAPILVIYGKNNRWSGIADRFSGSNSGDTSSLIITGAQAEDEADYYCSSRDSSGFQVFFGAGTKLTVL,3.72 / nd / nd,0/9
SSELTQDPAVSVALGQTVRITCEGDSADYYWANWYQQKPGQAPILVIYGKNNRPSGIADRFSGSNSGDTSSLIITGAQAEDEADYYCSSRDSSGFQVFFGAGTKLTVL,nd / nd / nd,1/9 (4.63)
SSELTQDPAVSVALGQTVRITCEGDSLRYYYFNWYQQKPGQAPILVIYGKNNRPSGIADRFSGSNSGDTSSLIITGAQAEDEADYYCSSRDSSGFQVFFGAGTKLTVL,nd / 4.83 / nd,2/9 (3.77)
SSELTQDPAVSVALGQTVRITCEGDSLRYYYANWYQQKPGQAPILVIYGKNNRPSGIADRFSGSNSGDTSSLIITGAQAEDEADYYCSSYDCSGFQQFFGAGTKLTVL,3.30 / 2.64 / 2.52,3/9 (4.04)
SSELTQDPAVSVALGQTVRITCEGDSLRYYYANWYQQKPGQAPILVIYGKNNRPSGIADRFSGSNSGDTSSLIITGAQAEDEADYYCSDRDSSGVQHFFGAGTKLTVL,2.63 / 3.10 / 4.46,3/9 (4.05)
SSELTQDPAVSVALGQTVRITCEGDSLRYYYANWYQQKPGQAPILVIYGKNNRPSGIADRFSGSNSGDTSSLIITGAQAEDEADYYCGSRDSSLFQLFFGAGTKLTVL,nd / nd / nd,3/9 (3.16)
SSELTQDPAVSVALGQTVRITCEGDSLRYYYANWYQQKPGQAPILVIYGKQNRPSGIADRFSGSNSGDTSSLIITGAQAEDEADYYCSSRDSSYIQVFFGAGTKLTVL,3.03 / 2.63 / 3.54,3/9 (3.74)
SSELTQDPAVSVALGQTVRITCEGDSLRYYYANWYQQKPGQAPILVIYGKNNSPSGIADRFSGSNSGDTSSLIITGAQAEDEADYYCSSRDYSGFQVRFGAGTKLTVL,2.30 / 2.52 / 3.00,1/9 (3.01)
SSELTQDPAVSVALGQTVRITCEGMSLRYYYANWYQQKPGQAPILVIYGKNNRPSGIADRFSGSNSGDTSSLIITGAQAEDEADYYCSSRPSSGFEVFFGAGTKLTVL,2.66 / 2.88 / 2.32,1/9 (3.67)
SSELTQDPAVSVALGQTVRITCYGDSLRYYYANWYQQKPGQAPILVIYGKNNRPSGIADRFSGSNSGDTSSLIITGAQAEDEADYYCSSRDLSGFQSFFGAGTKLTVL,nd / nd / nd,1/9 (3.53)
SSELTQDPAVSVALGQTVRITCEGDSLRYYYANWYQQKPGQAPILVIYRKNNRPSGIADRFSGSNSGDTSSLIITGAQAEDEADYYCDSRDSSHFQVFFGAGTKLTVL,4.04 / 5.23 / nd,1/9 (3.70)
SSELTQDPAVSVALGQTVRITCEGDTSRYYYANWYQQKPGQAPILVIYGKNNRPLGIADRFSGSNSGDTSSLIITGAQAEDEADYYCSSRDSSGFQVFFGAGTKLTVL,4.29 / 3.61 / 4.03,0/9
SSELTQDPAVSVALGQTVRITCEGDSLRYAYANWYQQKPGQAPILVIYGKNNVPSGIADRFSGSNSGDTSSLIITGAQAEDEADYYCSSRDSSGQQVFFGAGTKLTVL,1.90 / 1.93 / 1.55,1/9 (5.35)
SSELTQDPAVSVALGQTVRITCEGDSLRYEYANWYQQKPGQAPILVIYGKNNRPSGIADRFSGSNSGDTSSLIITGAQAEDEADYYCSSRDSSGFQVFFGAGTKLTVL,1.87 / 1.46 / 1.15,4/9 (4.44)
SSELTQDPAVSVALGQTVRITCEGDSLRYYYSNWYQQKPGQAPILVIYGKNNRPSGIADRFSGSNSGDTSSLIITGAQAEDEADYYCSSRDSLAFQVFFGAGTKLTVL,2.82 / 3.22 / 2.53,1/9 (4.34)

2 of these entries, quoted again:

VL,"log10 Kd, replicates",control signals
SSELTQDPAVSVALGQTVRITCEGDSLRYYYANWYQQKPGQAPILVIYGKQNRPSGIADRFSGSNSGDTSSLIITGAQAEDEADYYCSSRDSSYIQVFFGAGTKLTVL,3.03 / 2.63 / 3.54,3/9 (3.74)
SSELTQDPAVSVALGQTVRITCEGDSLRFYYSNWYQQKPGQAPILVIYGKNNHPSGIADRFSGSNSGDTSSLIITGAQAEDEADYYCSSRDSSGFQVFFGAGTKLTVL,3.88 / nd / nd,1/9 (3.18)

Background: pairings of library AAYL52 with three empty control strains gave a value in 28% of cases (median 3.91, 5th percentile 2.90). Values in that range, when seen in few replicates, are hard to tell from nonspecific mating. The control count says in how many pairings with the empty strains this scFv gave a signal, with their mean in brackets.
For reference, the parent read 2.31 as the reference entry and 2.25 as a member of this library.